Source: patent publication US20220257633A1, “METHOD OF TREATING AGE-RELATED MACULAR DEGENERATION” (THE PROVOST, FELLOWS, FOUNDATION SCHOLARS, & THE O, priority 2021, published 2022)

Chains of the proteins cited; added tags and fusions are not shown. Residues count along the entry.
UniProt O60603, 21-784: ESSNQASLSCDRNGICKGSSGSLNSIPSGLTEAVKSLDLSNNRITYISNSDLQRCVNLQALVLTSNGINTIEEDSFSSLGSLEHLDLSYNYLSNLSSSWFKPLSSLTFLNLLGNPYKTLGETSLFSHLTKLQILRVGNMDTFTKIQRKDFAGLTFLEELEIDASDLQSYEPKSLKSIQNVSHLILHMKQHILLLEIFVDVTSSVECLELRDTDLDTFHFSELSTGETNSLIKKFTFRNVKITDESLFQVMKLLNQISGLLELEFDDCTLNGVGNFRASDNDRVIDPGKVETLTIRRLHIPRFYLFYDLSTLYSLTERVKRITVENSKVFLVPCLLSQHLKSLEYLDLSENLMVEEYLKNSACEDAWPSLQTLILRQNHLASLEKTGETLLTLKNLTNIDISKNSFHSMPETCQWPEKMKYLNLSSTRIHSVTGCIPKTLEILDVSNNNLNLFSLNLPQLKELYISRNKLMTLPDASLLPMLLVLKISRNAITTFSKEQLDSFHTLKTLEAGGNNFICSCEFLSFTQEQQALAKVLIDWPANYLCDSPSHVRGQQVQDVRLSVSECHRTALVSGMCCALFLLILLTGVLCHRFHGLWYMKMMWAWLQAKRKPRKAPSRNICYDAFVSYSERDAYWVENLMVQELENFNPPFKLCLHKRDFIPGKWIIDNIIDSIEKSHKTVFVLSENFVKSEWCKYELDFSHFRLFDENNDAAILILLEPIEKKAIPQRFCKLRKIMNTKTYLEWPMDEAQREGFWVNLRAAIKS
UniProt Q15399, 25-786: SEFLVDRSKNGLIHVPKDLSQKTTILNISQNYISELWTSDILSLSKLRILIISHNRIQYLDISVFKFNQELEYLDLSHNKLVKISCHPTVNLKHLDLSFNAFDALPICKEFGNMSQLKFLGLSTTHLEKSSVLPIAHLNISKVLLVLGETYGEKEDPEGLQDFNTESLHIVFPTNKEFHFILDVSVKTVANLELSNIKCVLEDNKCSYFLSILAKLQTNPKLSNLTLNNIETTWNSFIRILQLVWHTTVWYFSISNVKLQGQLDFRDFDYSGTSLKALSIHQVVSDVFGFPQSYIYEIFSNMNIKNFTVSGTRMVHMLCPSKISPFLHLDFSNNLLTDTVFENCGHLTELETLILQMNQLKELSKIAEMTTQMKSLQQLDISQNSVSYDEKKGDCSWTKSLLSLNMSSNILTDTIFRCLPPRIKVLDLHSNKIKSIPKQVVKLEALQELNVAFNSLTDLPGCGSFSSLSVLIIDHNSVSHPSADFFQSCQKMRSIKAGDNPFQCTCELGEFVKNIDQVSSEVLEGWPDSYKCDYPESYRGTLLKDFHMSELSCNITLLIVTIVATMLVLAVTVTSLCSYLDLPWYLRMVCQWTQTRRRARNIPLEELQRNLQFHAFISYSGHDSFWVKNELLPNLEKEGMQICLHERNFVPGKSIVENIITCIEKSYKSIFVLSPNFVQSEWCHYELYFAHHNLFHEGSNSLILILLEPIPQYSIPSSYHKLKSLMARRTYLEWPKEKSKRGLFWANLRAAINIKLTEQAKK

What was measured:
TLR2 [1] = biological target: T1, TLR2 (Homo sapiens, UniProt O60603+Q15399); experiment: qPCR of C3 and CFB in hfRPE cells stimulated with CEP-HSA, with or without anti-TLR2; type: cell-based; conditions: 10 μM CEP-HSA 24 h, to similar levels observed for Pam3Cys4
T1 construct: host or cells: ARPE-19 cells
Method: (§1) Bone marrow derived macrophages (BMDMs), human monocytic cell like THP1s, PBMCs ARPE-19 cells, primary human fetal RPE cells or primary retinal microglia were stimulated with the generic TLR2/1 ligand Pam3Cys4 (Invivogen) or with CEP-HSA (kindly provided by Prof. Robert G Salomon (Case Western Reserve University, Cleveland Ohio) at indicated concentrations. Where indicated RPE cells were pre-treated with 0.1 μg/ml TLR2 antibody for 1 hour (T2.5 Invivogen), corresponding IgG control 0.1 μg/ml (Invivogen), Mal peptide inhibitor resuspended in DMSO 40 μM (Calbiochem) or an equal volume of DMSO was used in the control treatment.
Total RNA was extracted from BMDMs, THP1s, ARPE-19 or hfRPE cells using Isolate II RNA extraction kit (Bioline) as per manufacturer's instructions. RNA was reverse transcribed using MMLV Reverse Transcriptase (Promega). Target genes were amplified by real time PCR with SensiFast SYBR Green (Bioline) using the ABI 7900HT system (Applied Biosystems). The cycling threshold method was used for relative quantification after normalisation to the ‘housekeeping’ gene βActin. The primers used were: […]

TLR2 [2] = biological target: T1, TLR2; experiment: Membrane attack complex (MAC) formation on ARPE-19 cells, confocal microscopy; type: cell-based; conditions: CEP-HSA in the presence of 10% NHS; 24 h; only combination
Method: as §1
Polarised ARPE-19 cells grown on transwell filters were maintained in serum free DMEM F-12 Ham for 48 hours. Cells were stimulated with 10% Normal human serum or heat inactivated normal human serum (Hi) (56° C. 30 minutes) either alone or with human serum albumin (HSA) or CEP-HSA for 24 hours. Where indicated cells were pre-treated for 1 hour with anti-TLR2 blocking antibody (T2.5 Invivogen), IgG control (0.1 μg/ml) or Mal peptide inhibitor (Calbiochem). Supernatants were harvested and assessed for soluble MAC formation by ELISA (Abbexa). […] Cells were counted stained with Hoechst. […] Staining was analysed using a confocal laser scanning microscope Axio Observer Z1 inverted microscope equipped with a Zeiss LSM 700 T-PMT scanning unit and a 40× plan.

TLR2 [3] = biological target: T1, TLR2; experiment: Immunoblot of secreted CFB and C3 in hfRPE supernatant; type: cell-based; conditions: 17.5 or 35 μM CEP-HSA, 20 nM Pam3Cys4
Method: as §1
(§2) Antibodies for CFB (Atlas Antibodies Sigma) 1:250, C3 (MP Biomedicals-855444), C3d 1:1000 (Dako), ZO-1 (Invitrogen) 1:1000 and C5b-9 (Santa Cruz) 1:500 were incubated overnight at 4° C. Polyvinylidene fluoride (PVDF) membranes were wash 3 times with TBS-T and incubated with horseradish peroxidase conjugated anti-rabbit, anti-mouse or anti-goat 1:2000 (Sigma-Aldrich) for 1 hour at room temperature and developed using enhanced chemiluminescence. Densitometry was used to determine relative quantity of MAC and iC3b protein relative to actin loading control using Image J software. Scanned images were converted to 8-bit images. Each protein band was measured to obtain the area and mean value. The area was multiplied by the mean to obtain a measurement for each lane. […]

[4] = tested on: hfRPE cells or ARPE-19 cells; experiment: Soluble MAC ELISA in cell culture supernatants; type: cell-based, human; conditions: CEP-HSA in the presence of NHS; 24 h
Method: (§3) MCP-1 (TebuBio), and Soluble MAC (Abbexa) was detected in cell supernatants by sandwich ELISA according to manufacturer's instructions. Absorbance was read at 450 nm on a 96 well plate spectrophotometer.
Polarised ARPE-19 cells grown on transwell filters were maintained in serum free DMEM F-12 Ham for 48 hours. Cells were stimulated with 10% Normal human serum or heat inactivated normal human serum (Hi) (56° C. 30 minutes) either alone or with human serum albumin (HSA) or CEP-HSA for 24 hours. Where indicated cells were pre-treated for 1 hour with anti-TLR2 blocking antibody (T2.5 Invivogen), IgG control (0.1 μg/ml) or Mal peptide inhibitor (Calbiochem). Supernatants were harvested and assessed for soluble MAC formation by ELISA (Abbexa). Transwell inserts were fixed with 4% Paraformaldehyde for 10 minutes at room temperature, blocked with 5% bovine serum albumin (BSA) for 1 hour at room temperature and incubated with anti-mouse-05b-9 1:25 (Santa cruz) overnight at 4° C. Transwells were washed 3 times in PBS and incubated with goat anti-mouse 647 1:500 (Invitrogen) and Phallodin 1:500 (Invitrogen) for 2 hours at room temperature. Cells were counted stained with Hoechst. […] Staining was analysed using a confocal laser scanning microscope Axio Observer Z1 inverted microscope equipped with a Zeiss LSM 700 T-PMT scanning unit and a 40× plan.

TLR2 [5] = biological target: T1, TLR2; experiment: ZO-1 western blot in hfRPE cells; type: cell-based; conditions: 17.5 or 35 μM CEP-HSA, 20 nM Pam3Cys4, 24 h
Method: as §1, §2

hfRPE cells = experiment: MAC formation on polarised hfRPE cells, confocal microscopy; type: cell-based, human; conditions: 10% NHS and CEP-HSA vs 10% NHS and HSA; 24 h
Method: Polarised ARPE-19 cells grown on transwell filters were maintained in serum free DMEM F-12 Ham for 48 hours. Cells were stimulated with 10% Normal human serum or heat inactivated normal human serum (Hi) (56° C. 30 minutes) either alone or with human serum albumin (HSA) or CEP-HSA for 24 hours. Where indicated cells were pre-treated for 1 hour with anti-TLR2 blocking antibody (T2.5 Invivogen), IgG control (0.1 μg/ml) or Mal peptide inhibitor (Calbiochem). Supernatants were harvested and assessed for soluble MAC formation by ELISA (Abbexa). Transwell inserts were fixed with 4% Paraformaldehyde for 10 minutes at room temperature, blocked with 5% bovine serum albumin (BSA) for 1 hour at room temperature and incubated with anti-mouse-05b-9 1:25 (Santa cruz) overnight at 4° C. Transwells were washed 3 times in PBS and incubated with goat anti-mouse 647 1:500 (Invitrogen) and Phallodin 1:500 (Invitrogen) for 2 hours at room temperature. Cells were counted stained with Hoechst. Transwells inserts were carefully cut with a sterile blade and mounted on to polysine coated slides (Thermo Scientific) using Mowiol® 4-88. Staining was analysed using a confocal laser scanning microscope Axio Observer Z1 inverted microscope equipped with a Zeiss LSM 700 T-PMT scanning unit and a 40× plan.

TLR2 [6] = biological target: T1, TLR2; experiment: MCP-1/CCL2 ELISA in ARPE-19 cell supernatants; type: cell-based
Method: as §1
0.4 μM polyester transwell inserts (VWR) were coated with 100 μg/ml Collagen IV (Sigma-Aldrich C5533) for 4 hours. ARPE-19 cells were seeded at a density of 1.7×10^5 cells per cm^2 in DMEM F-12 Ham containing 10% (FBS). Two days later medium was replaced with complete medium containing 1% FBS and replenished twice weekly for 4-6 weeks.
as §3

[7] = polarized RPE cells on transwells >5 weeks, CEP or CEP+NHS

**Q.** How did the C3 transcripts (TLR2 [1]) turn out when “CEP-HSA: 2-(w-Carboxyethyl) pyrrole (CEP) adducted to human serum albumin, oxidative stress product and TLR2 ligand” was run?
**A.** induced

**Q.** And the CFB transcripts (TLR2 [1])?
**A.** induced

**Q.** What about the “MAC formation on the membrane of ARPE-19 cells” value (TLR2 [2]) of the same substance?
**A.** induced MAC formation

**Q.** And the “secreted CFB protein in supernatant” value (TLR2 [3]; 24 h)?
**A.** secretion

**Q.** And the “secreted C3 protein in supernatant” value (TLR2 [3]; 48 h)?
**A.** secretion

**Q.** And the “soluble MAC by ELISA” value [4]?
**A.** significantly drive MAC formation

**Q.** And the ZO-1 expression (TLR2 [5])?
**A.** marked decrease

**Q.** And the “MAC formed on hfRPE cells” value (hfRPE cells)?
**A.** significantly more MAC

**Q.** What about the “secretion of MCP-1/CCL2” value (TLR2 [6]; ARPE-19, CEP-HSA+NHS over NHS or CEP-HSA alone) of the same substance?
**A.** significant increase

**Q.** And the “MCP-1/CCL2 release into the apical compartment” value (TLR2 [6]; [7])?
**A.** strong cytokine release

**Q.** What about the “MCP-1/CCL2 secretion into the basolateral compartment” value (TLR2 [6]; [7]) of the same substance?
**A.** no significant secretion
